pIC50: −log10 of the molar value.
What was measured:
Test in all cases: biochemical
[1] = target: NDM-1 (Klebsiella pneumoniae, UniProt C7C422); conditions: NDM-1 IC50, 300 μM imipenem, 10 mM HEPES pH 7.5, 25 °C; average of at least two independent assays
[2] = target: IMP-1 (Serratia marcescens, UniProt P52699)
[3] = target: VIM-2 (Escherichia coli, UniProt Q5U7L7)
[4] = target: VIM-1 (Pseudomonas aeruginosa, UniProt A0A0F7KYQ8)

O=C(O)c1cc2ccccc2cn1 [Compound 11]
pIC50 [1]: 4.71 | pIC50 [2]: < 3.70 | pIC50 [3]: < 3.70 | pIC50 [4]: < 3.70
